Hits are enriched below; roughly 1.5% of the tested compounds scored in any of these assays.
RAD54 inh – RAD54 (human) branch migration inhibition; RAD54 Holliday junction branch migration, FAM/BHQ fluorescence; inhibition, % at 10.4 µM; 360,000 compounds, 0.14% hits; Q92698;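 active means mean normalized replicate activity at least 40 and at least half of replicates scoring 40 or more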;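 further: inhibitors cause a drop in the FAM fluorescence signal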
Casp6 inh – caspase-6 (human) enzyme inhibition | inhibition, % at 12.5 µM | AID 686996 | purified caspase-6, Z-VEID-R110 cleavage fluorescence | 350,000 compounds, 0.53% hits;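 active means mean inhibition across replicates at least about 35%, with every replicate also reaching that limit, limit read from the data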
RAD52 anneal inh – blocks human RAD52 DNA annealing; P43351; recombinant RAD52 DNA annealing, FRET fluorescence; inhibition, % at 18.7 µM; 360,000 compounds, 0.46% hits; AID 651710;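 active means every replicate showing at least 50% inhibition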
PglD DTNB – blocks C. jejuni PglD acetyltransferase activity; inhibition, % at 12.5 µM; purified PglD enzyme, DTNB colorimetric CoA detection; AID 602405; 360,000 compounds, 0.098% hits; in the data active means inhibition above about 16%, passing the limit was not always enough
Yeast UUG start-1 – modulators of yeast start codon fidelity, primary screen, whole organism, S. cerevisiae, single point, plate reader | AID 602363, 2012 | actives 0.13% (n = 350,000) | activity score, % at 18.7 µM | S. cerevisiae UUG-firefly luciferase reporter, luminescence/redox ratio;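 active means replicate mean at a twofold rise or more, about +100% in these data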;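 further: firefly luciferase made from a UUG start codon reports start codon fidelity; reporter light over untreated wells divided by growth signal over untreated wells; some hits fall short of that in this replicate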
GSIS activator – primary screen for activators of insulin secretion dependent on glucose, INS-1E cells, GLuc reporter luminescence | activation, % at 16.6 µM | INS-1E GLuc reporter insulin secretion, 2-3 h | 370,000 compounds, 0.61% hits;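 active means lowest replicate activation of at least 40%, so every replicate reaches that level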
Yeast UUG start-2 – modulators of start codon recognition fidelity in yeast; activation, % at 38 µM; S. cerevisiae UUG-start firefly luciferase, luminescence, 4 h; 100% means double the DMSO signal; shares compounds with Yeast UUG start-1; 540 tested, under 10 active;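 active means signal increase whose fitted curve reaches an absolute level of 40 at a concentration under 10 µM; inactive means activity opposite to the expected increase, or the rest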
Numbers stand for hits; . = inactive; / = no result given.

SMILES	RAD54 inh	Casp6 inh	RAD52 anneal inh	PglD DTNB	Yeast UUG start-1	GSIS activator	Yeast UUG start-2
C[C@H](CO)N1C[C@H](C)[C@@H](CN(C)C(=O)c2ccccn2)Oc2ncc(Br)cc2C1=O	.	.	.	.	202	.	.
CN(C)CC(=O)Nc1ccc2c(c1)[C@@H]1C[C@@H](CC(=O)NCc3cccc(F)c3)O[C@@H](CO)[C@@H]1O2	.	.	.	.	55	.	.
CN(C)C(=O)C[C@@H]1C[C@H]2c3cc(NC(=O)Nc4ccccc4F)ccc3O[C@H]2[C@H](CO)O1	.	.	.	.	47	.	.
CN(C)C(=O)C[C@@H]1C[C@@H]2c3cc(NC(=O)Nc4ccccc4F)ccc3O[C@@H]2[C@@H](CO)O1	.	.	.	.	127	.	.
CN(C)c1ccc(/C=C/c2ccc3ccccc3[n+]2C)cc1	81	/	/	.	127	.	.
Fc1ccc(NC(=S)NCc2cccs2)cc1	.	/	/	.	253	.	.
O=C(CN1CCOCC1)N1CCN(c2ccc([N+](=O)[O-])cc2)CC1	/	.	.	/	/	.	.
O=C(CN1CCN(c2ccc([N+](=O)[O-])cc2Cl)CC1)N1CCOCC1	.	.	.	.	.	/	/
O=C(Cn1cnc2ccccc2c1=O)NCCC(=O)Nc1ccc2c(c1)OCCO2	.	/	/	.	.	/	/
CCCCSc1nc2ccc(Nc3nc(N4CCOCC4)nc(N4CCOCC4)n3)cc2s1	.	/	/	.	.	.	/
Cc1noc(C)c1NC(=O)N(C)C[C@@H]1OCCCC[C@H](C)Oc2ccc(NS(=O)(=O)c3ccc(F)cc3)cc2C(=O)N([C@@H](C)CO)C[C@@H]1C	.	.	.	.	183	.	.
C[C@@H]1CCCCO[C@H](CN(C)C(=O)c2ccccc2)[C@@H](C)CN([C@@H](C)CO)C(=O)c2cc(NC(=O)CCC(F)(F)F)ccc2O1	.	.	.	.	.	.	/
CC(C)NC(=O)Nc1cccc2c1O[C@H](CN(C)Cc1ccc(C(=O)O)cc1)[C@H](C)CN([C@H](C)CO)C2=O	.	.	.	.	132	.	.
C[C@H]1CCCCO[C@H](CN(C)C(=O)c2ccccc2)[C@@H](C)CN([C@@H](C)CO)C(=O)c2cc(NC(=O)CCC(F)(F)F)ccc2O1	.	.	.	.	128	.	.
C[C@H](CO)N1C[C@H](C)[C@H](CN(C)Cc2ccc(C(F)(F)F)cc2)OCCCC[C@H](C)Oc2ccc(NC(=O)Nc3ccc(F)cc3)cc2C1=O	.	.	.	.	120	.	.
C[C@H]1CN([C@@H](C)CO)C(=O)c2cc(C#Cc3cccc(F)c3)cnc2O[C@@H]1CN(C)Cc1ccccn1	.	.	.	.	.	.	/
C[C@H](CO)N1C[C@H](C)[C@@H](CN(C)CC2CCCCC2)OCCCC[C@H](C)Oc2ccc(NS(=O)(=O)c3cn(C)cn3)cc2C1=O	.	.	.	.	136	.	.
C[C@H](CO)N1C[C@H](C)[C@H](CN(C)Cc2ccccc2)OCCCC[C@H](C)Oc2ccc(NS(=O)(=O)c3ccc(F)cc3)cc2C1=O	.	.	77	.	235	.	.
C[C@@H]1CN([C@@H](C)CO)C(=O)c2cc(NS(=O)(=O)c3ccc(F)cc3)ccc2O[C@@H](C)CCCCO[C@H]1CN(C)Cc1ccccc1	.	.	.	.	.	.	/
O=P(CO)(Cc1ccccc1)Cc1ccccc1	.	/	/	.	.	/	/
Cc1nn(CC#N)c(=O)n1-c1ccccc1F	.	/	/	.	.	/	/
Cc1ccc(-n2c(C)nn(CC#N)c2=O)cc1	.	.	.	.	346	.	.
CCO[C@@H]1OC(C(=O)Nc2ccccc2)=C[C@H](c2ccccc2)[C@H]1CCCO	.	.	.	.	.	/	/
COc1ccc(N2CCN(CCC3Oc4cc([N+](=O)[O-])ccc4NC3=O)CC2)cc1 (configuration not stated)	.	.	.	.	.	.	/
CCN1CCN(CCC2Oc3cc([N+](=O)[O-])ccc3NC2=O)CC1 (configuration not stated)	.	.	.	.	.	.	.
O=C1Nc2ccc([N+](=O)[O-])cc2OC1CCN1CCN(Cc2ccc3c(c2)OCO3)CC1 (configuration not stated)	.	.	.	.	611	.	.
